# Results: PubChem BioAssay AID2797 (The Scripps Research Institute Molecular Screening Center, 2010)
# Sequences of proteins named here, by UniProt entry; tags and fusion partners are left off.
# UniProt P37288, whole entry, looked up: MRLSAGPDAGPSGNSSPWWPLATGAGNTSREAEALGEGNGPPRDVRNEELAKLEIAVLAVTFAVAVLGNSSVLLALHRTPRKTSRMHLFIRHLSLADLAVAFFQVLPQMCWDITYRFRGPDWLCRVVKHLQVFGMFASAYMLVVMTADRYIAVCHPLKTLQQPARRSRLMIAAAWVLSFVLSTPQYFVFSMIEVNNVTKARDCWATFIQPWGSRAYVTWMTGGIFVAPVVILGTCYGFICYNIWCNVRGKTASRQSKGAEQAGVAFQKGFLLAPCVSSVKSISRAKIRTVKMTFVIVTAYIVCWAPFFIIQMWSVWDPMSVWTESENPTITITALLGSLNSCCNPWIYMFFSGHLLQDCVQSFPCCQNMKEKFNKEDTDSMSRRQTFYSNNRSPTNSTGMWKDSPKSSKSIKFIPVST
# The entries are a selection whose mix differs from that of the whole data set. Calls of active or inactive are those of the source.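 Rule for the calls: active = activation above the mean activation of all tested compounds plus 3 SD, per screening run (cut at about 20% in these data); inactive = the rest.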
# Target: Vasopressin V1a receptor (Homo sapiens) (UniProt P37288)
# Assay: agonists of human V1a receptor, primary screen, counter-screen for OXTR agonist project, fluorescence, CHO-V1R cells (AID 2797);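 note: signal is peak over basal fluorescence ratio across a 100 second FLIPR read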
# Details: Fluo-8 calcium fluorescence, agonist mode, at 3 µM, hits give high values, 0% DMSO, 100% 3 nM vasopressin
row,SMILES,activation
1,CC(C)C(=O)NC(Sc1ccccc1)C(Cl)(Cl)Cl (stereo unspecified),inactive: 0.03%
2,O=P(Nc1nccs1)(c1ccccc1)c1ccccc1,inactive: 0.44%
3,c1nnnn1CCn1cnnn1,inactive: -0.27%
4,COc1ccc(C[C@H](C)NC[C@@H](O)c2ccc(O)c(NC=O)c2)cc1,inactive: 0.9%
5,O=P(Nc1ccccn1)(c1ccc(Br)cc1)c1ccc(Br)cc1,inactive: -0.53%
6,CN(C)C1(CNC(=O)c2ccc(Cl)c(S(N)(=O)=O)c2)CCCCC1,inactive: -0.15%
7,C[C@H]1OP(=O)(Oc2ccccc2)[C@H](O)[C@H](O)[C@H]1N=[N+]=[N-] (stereo partly specified),inactive: 0.92%
8,O=P(Nc1nc2ccccc2s1)(c1ccccc1)c1ccccc1,inactive: -1.12%
9,O=[As](O)(c1ccccc1)c1ccc(O)cc1,inactive: 1.27%
10,O=[N+]([O-])c1ccc(O)c(/C=N/Nc2ccc([N+](=O)[O-])cc2[N+](=O)[O-])c1,inactive: 5.99%
11,CC(=O)NC(SC(=S)N(C)C)C(Cl)(Cl)Cl (stereo unspecified),inactive: -0.26%
12,O=[N+]([O-])c1ncn(CCn2cnc([N+](=O)[O-])n2)n1,inactive: 0.09%
13,O=C(OC1CN2CCC1CC2)c1cccc(Cl)c1 (stereo unspecified),inactive: 1.85%
14,Nc1ccc([As](=O)(O)c2ccc([N+](=O)[O-])cc2)cc1,inactive: 0.31%
15,C(Cc1nn[nH]n1)Cc1nn[nH]n1,inactive: 0.81%
16,Cc1ccc(NP(=O)(Oc2cccc(C)c2)Oc2cccc(C)c2)nc1,inactive: 0.35%
17,CCOC(=O)NC(Sc1ccccc1)C(Cl)(Cl)Cl (stereo unspecified),inactive: -0.22%
18,c1ccc(-c2nn[nH]n2)c(-c2nn[nH]n2)c1,inactive: 1.98%
19,CCNC(=S)/N=C(\N)N[N+](=O)[O-],inactive: -0.11%
20,O=C(NC1CCS(=O)(=O)C1)NP(=S)(Oc1ccccc1)Oc1ccccc1 (stereo unspecified),inactive: 1.7%
21,CCC(=O)N1C2C3N(C(=O)CC)C1C1N(C(=O)CC)C(C(N1C(=O)CC)N3C(=O)CC)N2C(=O)CC,inactive: 0.49%
22,O=C(OC1CN2CCC1CC2)c1ccccc1 (stereo unspecified),inactive: 0.93%
23,CC(=O)NC(SC(=S)N(CC(C)C)CC(C)C)C(Cl)(Cl)Cl (stereo unspecified),inactive: 1.55%
24,Cc1ccc(OP(=O)(Nc2ccccn2)Oc2ccc(C)cc2)cc1,inactive: 4.22%
25,COC(=O)c1cc2c(s1)N=C(c1ccccc1)N(C)P2(=O)N1CCOCC1 (stereo unspecified),inactive: 0.5%
26,CN(C)C(=O)Oc1noc2ccccc12,inactive: -1.44%

row,SMILES,activation
1,Cc1ccccc1OP(=O)(Nc1ccccn1)Oc1ccccc1C,inactive: 0.28%
2,CC(NC(=O)COC(=O)C(O)(c1ccccc1)c1ccccc1)c1ccccc1 (stereo unspecified),inactive: 5.05%
3,CCOc1ccc(C2=NCC(CBr)S2)cc1 (stereo unspecified),inactive: 0.77%
4,O=P1(Nc2nc3ccc(Cl)cc3s2)COc2ccccc2O1 (stereo unspecified),inactive: 0.9%
5,CC(C)(C)C(=O)NC(Sc1ccccc1)C(Cl)(Cl)Cl (stereo unspecified),inactive: -1.15%
6,C[C@@H]1C=CCP(=O)(Oc2ccccc2)O1 (stereo partly specified),inactive: -0.22%
7,C[C@H]1OP(=O)(Oc2ccccc2)C[C@@H]2O[C@@H]21 (stereo partly specified),inactive: 0.58%
8,Cc1ccccc1CN(C)C(=O)COC(=O)C(O)(c1ccccc1)c1ccccc1,inactive: 1.96%
9,CC(=O)c1ccc(N2CC2c2ccncc2)cc1 (stereo unspecified),inactive: 0.61%
10,CC(=O)Nc1ccc(Oc2c([N+](=O)[O-])cc([N+](=O)[O-])cc2[N+](=O)[O-])cc1,inactive: -0.35%
11,CC(=O)Nc1ccc([As](=O)(O)O)c(O)c1,inactive: 1.86%
12,Cc1ccc(N/C(=N/P(=O)(N2CCOCC2)N2CCOCC2)N2CCOCC2)cc1,inactive: -0.19%
13,CN(C(=O)Cc1ccc(Cl)c(Cl)c1)[C@H]1CCCC[C@H]1N1CCCC1,inactive: 0.4%
14,NC(=O)c1cc([N+](=O)[O-])cc([N+](=O)[O-])c1N,inactive: 0.49%
15,Clc1ccc(Cl)c(NC2=NCC(CBr)S2)c1 (stereo unspecified),inactive: 0.29%
16,CN1CCCC(OC(=O)C(c2ccccc2)c2ccccc2)C1 (stereo unspecified),inactive: 13%
17,Cc1ccc(OP(=O)(Nc2nccs2)Oc2ccc(C)cc2)cc1,inactive: -1.32%
18,COc1ccccc1OP(=O)(Nc1ccc(C)cn1)Oc1ccccc1OC,inactive: -0.15%
19,Cc1c2non([O-])c-2c(C)[n+](=O)[n+]1[O-],inactive: 8.37%
20,O=C(NC(Sc1ccncn1)C(Cl)(Cl)Cl)c1ccccc1 (stereo unspecified),inactive: -0.18%
21,Oc1ccccc1CNc1ccccn1,inactive: 0.63%
22,CC(C)CC(=O)NC(Sc1ccc(Cl)cc1)C(Cl)(Cl)Cl (stereo unspecified),inactive: -1.23%
23,Nc1cc(N)c2nonc2c1[N+](=O)[O-],inactive: 1.72%
24,O=P(Nc1nc2ccc(Cl)cc2s1)(c1ccccc1)c1ccccc1,inactive: 0.28%
25,O=C(O)c1ccccc1[As](=O)(O)O,inactive: 0.4%
26,CC(=O)Nc1ccc([As](=O)(O)O)cc1,inactive: 0.35%

row,SMILES,activation
1,Cc1ccc(NP(=O)(Oc2ccccc2F)Oc2ccccc2F)nc1,inactive: 0.28%
2,CN(C(=O)Cc1ccc(Cl)c(Cl)c1)[C@H]1CCCC[C@@H]1N1CCCC1,inactive: -0.79%
3,CCOP(=O)(Nc1ccccc1)OCC,inactive: 0.49%
4,Cc1cc(SC(NC(=O)c2ccc(F)cc2)C(Cl)(Cl)Cl)ncn1 (stereo unspecified),inactive: 0.73%
5,O=[N+]([O-])c1cc([N+](=O)[O-])c(CCN2CCOCC2)c([N+](=O)[O-])c1,inactive: -1.17%
6,CCN(N=Nc1nonc1N)c1nonc1N,inactive: 0.15%
7,O=C(Nc1cc([As](=O)(O)O)ccc1O)c1ccccc1,inactive: -0.26%
8,O=[N+]([O-])c1ncn(CCn2ncnc2[N+](=O)[O-])n1,inactive: 0.39%
9,CC(C)(C)C(=O)NC(Sc1ccncn1)C(Cl)(Cl)Cl (stereo unspecified),inactive: 1.65%
10,O=[N+]([O-])c1cccc(NC2=NCC(CBr)S2)c1 (stereo unspecified),inactive: -0.36%
11,COc1ccc(C2=NCC(CBr)S2)cc1 (stereo unspecified),inactive: -0.67%
12,CCc1nc2c(n1)c1c(non1O)c1c2no[n+]1[O-],inactive: 8.41%
13,O=[N+]([O-])c1cc([N+](=O)[O-])c(CCNc2ccccc2)c([N+](=O)[O-])c1,inactive: -1.02%
14,Cc1ccc(NP(=O)(Oc2ccccc2)Oc2ccccc2)nc1,inactive: -1.06%
15,O=[N+]([O-])c1cccc2n[nH]nc12,inactive: 0.23%
16,CC(=O)N1C2C3N(C(C)=O)C1C1N(C(C)=O)C(C(N1C(C)=O)N3C(C)=O)N2C(C)=O,inactive: 0.92%
17,CCN(/C(=N/P(=O)(N1CCOCC1)N1CCOCC1)N1CCOCC1)c1ccc(OC)cc1,inactive: 0.07%
18,C[N+]1=C2C=CC=CC=C2SC12C([N+](=O)[O-])=CC([N+](=O)[O-])=C[C-]2[N+](=O)[O-] (stereo unspecified),inactive: 3.12%
19,Nc1ccc([As](=O)(O)c2ccc(N)cc2)cc1,inactive: -0.05%
20,CC1CCN(C(=O)Oc2c(Cl)cc(Cl)c3cccnc23)CC1,inactive: -1.5%
21,CN(C)C(=O)OCCc1n(C)cc[n+]1C,inactive: -0.16%
22,CC(C)=N/N=C(\N)N[N+](=O)[O-],inactive: 1.76%
23,COP1(=S)c2c(C)nn(CCC#N)c2N=C(c2ccc(F)cc2)N1C (stereo unspecified),inactive: -0.01%
24,O=C(Nc1ccncc1[N+](=O)[O-])c1ccc([N+](=O)[O-])cc1[N+](=O)[O-],inactive: 1.6%
25,O=C(COc1ccccc1)OC1CN2CCC1CC2 (stereo unspecified),inactive: 0.54%
26,O=C(OC1CN2CCC1CC2)c1cccc([N+](=O)[O-])c1 (stereo unspecified),inactive: -0.42%

row,SMILES,activation
1,CCOC(=O)c1ccc(NC(=O)C(C)(CCl)SC)cc1 (stereo unspecified),inactive: -0.41%
2,CCC(C)N(CC(C)C)C(=S)SC(NC(C)=O)C(Cl)(Cl)Cl (stereo unspecified),inactive: -0.56%
3,CCOC(=O)Nc1ccc([As](=O)(O)O)c(O)c1,inactive: 0.44%
4,Cc1cc(SC(NC(=O)c2ccccc2)C(Cl)(Cl)Cl)nc(C(C)C)n1 (stereo unspecified),inactive: 0.11%
5,CCOC(=O)Nc1cccc([As](=O)(O)O)c1,inactive: 0.39%
6,O=P(Nc1ccccn1)(c1cccc2ccccc12)c1cccc2ccccc12,inactive: 1.91%
7,Cc1cc(SC(NC=O)C(Cl)(Cl)Cl)ncn1 (stereo unspecified),inactive: -0.38%
8,COc1cc(C(=O)NCC2(N3CCOCC3)CCCCC2)ccc1OCC(C)C,inactive: -0.8%
9,C[As](=O)(O)c1cccc(C(=O)O)c1,inactive: 0.5%
10,O=[As](O)(c1ccc(O)cc1)c1ccccc1O,inactive: 0.77%
11,CC(Cc1ccc(O)cc1)NCC(O)c1cc(O)cc(O)c1 (stereo unspecified),inactive: 0.98%
12,Cc1ccc(OP(=O)(Nc2ccc([N+](=O)[O-])cn2)Oc2ccc(C)cc2)cc1,inactive: -0.66%
13,Cc1ccc2nc3c(c(C)c2c1)CC(C(Cl)Cl)S3 (stereo unspecified),inactive: -1.51%
14,ClCCSc1nnc(-c2cccnc2)o1,inactive: 1.29%
15,CC(C)c1ccc(OP(=O)(Nc2ccccn2)Oc2ccccc2F)cc1 (stereo unspecified),inactive: -1.35%
16,O=[N+]([O-])c1cc([N+](=O)[O-])c(-c2ccn[nH]2)s1,inactive: 0.71%
17,CCN(CC)C(=S)SC(NC=O)C(Cl)(Cl)Cl (stereo unspecified),inactive: 1.48%
18,CC(C)NC(=O)NP(=O)(Oc1ccccc1)Oc1ccccc1,inactive: 1.16%
19,Cc1c2c(nc3ccccc13)SC(C(Cl)Cl)C2 (stereo unspecified),inactive: -1.51%
20,Cc1cc(=O)[nH]c(N[N+](=O)[O-])n1,inactive: 1.44%
21,O=C(OC1CN2CCC1CC2)C12CC3CC(CC(C3)C1)C2 (stereo unspecified),inactive: 1.5%
22,COc1cc(I)ccc1[As](=O)(O)O,inactive: 0.06%
23,COc1ccc2nc(NP(=O)(c3ccccc3)c3ccccc3)sc2c1,inactive: -0.82%
